Measurements published in PMC4467128 (Oncotarget, 2014).

Experiments:
[1] = test system: BJAB cells; settings: 10 μM, 12 h
[2] = test system: p-Akt (S473) in BJAB cells; experiment: Cell-based ELISA for p-Akt (S473), BJAB; parameters: species or system human
Description: After the treatment, cells were lysed with ice-cold lysis buffer mentioned above and equivalent aliquots of protein were subjected to a PathScan phospho-Akt1 (Ser473) sandwich ELISA kit (Cell Signaling Technology) following manufacture's instruction. In briefly, whole cell lysate was first half-diluted with sample diluent and added 100 μl into the well incubating overnight at 4°C. After the reaction, wells were washed 4 times with 200 μl wash buffer and then added 100 μl of Akt1 mouse detection antibody incubating 1 h at 37°C. Washed 4 times again and then added 100 μl of anti-mouse IgG HRP-linked antibody incubating 30 min at 37°C. After incubation, washed the well once again and then added 100 μl TMB substrate for color production and finally added 100 μl STOP solution. The results were measured by spectrophotometer at wavelength 450 nm.

O=C(C=Cc1ccc2c(c1)CCN2S(=O)(=O)c1ccccc1)NO [MPT0E028, 3-(1-Benzenesulfonyl-2,3-dihydro-1H-indol-5-yl)-N-hydroxy-acrylamide]
Fold change BID [1]: −1.78 | Fold change STAT1 [1]: 1.77 | Fold change STAT2 [1]: 1.39 | Fold change STAT3 [1]: 1.39 | Fold change STAT4 [1]: 4.05 | Fold change STAT5A [1]: −2.15 | Fold change STAT5B [1]: −1.23 | Fold change STAT6 [1]: −1.71 | Fold change TP53 [1]: −2.06 | potency on Akt dephosphorylation relative to SAHA [2]: about 6 times
